Test results as given in ChEMBL document CHEMBL1687927, “Design and optimization of potent and orally bioavailable tetrahydronaphthalene Raf inhibitors” (J Med Chem, 2011).

The chains behind the UniProt entries cited, without tags or fusion partners. Residues count along the entry.
UniProt P15056, 2-766 V600E limits assumed: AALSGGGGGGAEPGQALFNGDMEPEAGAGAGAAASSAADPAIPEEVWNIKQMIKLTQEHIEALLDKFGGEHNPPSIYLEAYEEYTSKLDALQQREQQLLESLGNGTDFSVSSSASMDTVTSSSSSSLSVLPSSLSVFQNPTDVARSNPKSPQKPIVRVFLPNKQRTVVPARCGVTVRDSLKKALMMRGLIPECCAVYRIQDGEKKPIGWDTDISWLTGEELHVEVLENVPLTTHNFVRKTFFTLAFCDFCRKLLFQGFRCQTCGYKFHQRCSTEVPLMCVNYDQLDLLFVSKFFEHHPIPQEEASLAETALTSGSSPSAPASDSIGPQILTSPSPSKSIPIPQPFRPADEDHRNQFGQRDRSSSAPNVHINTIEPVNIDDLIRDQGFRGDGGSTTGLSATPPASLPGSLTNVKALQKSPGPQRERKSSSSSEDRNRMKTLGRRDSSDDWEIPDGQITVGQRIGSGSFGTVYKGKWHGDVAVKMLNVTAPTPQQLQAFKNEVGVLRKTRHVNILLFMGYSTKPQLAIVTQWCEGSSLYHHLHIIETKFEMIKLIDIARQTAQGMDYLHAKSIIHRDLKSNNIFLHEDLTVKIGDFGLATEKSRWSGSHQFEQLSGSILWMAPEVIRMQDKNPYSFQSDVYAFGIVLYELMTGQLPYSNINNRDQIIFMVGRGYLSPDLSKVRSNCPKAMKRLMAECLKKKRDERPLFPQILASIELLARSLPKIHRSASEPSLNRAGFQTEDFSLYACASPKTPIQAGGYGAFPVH

Target: Serine/threonine-protein kinase B-raf (Homo sapiens, UniProt P15056, V600E)

`CC(=O)Nc1cc(Oc2ccc3c(c2)C[C@@H](C(=O)Nc2cc(CN)cc(C(F)(F)F)c2)CC3)ccn1` was tested, and the IC50 was 7 nM.
